# Source: PubChem BioAssay AID624296 (National Center for Advancing Translational Sciences (NCATS), 2012)
# The list shows a part of the results, in another mix than the full data. Results filed as inconclusive are left out. Where a call stands in place of a potency, no number is given. The source made the active and inactive calls. Calls come from the whole dose curve; as a rule, active = well fitted activation curve with a large enough effect; inconclusive = small, poorly fitted or top-dose-only effect; inactive = no such curve, though single readings can be large or run the other way.
# Assay: A quantitative high throughput screen for small molecules that induce DNA re-replication in MCF 10a normal breast cells. Note: nearly all actives have a fitted effect of over 50% in size.
# Details: MCF 10A DNA re-replication, Hoechst nuclear intensity, 48 h; series mostly up to 46.1 µM
row,Structure (SMILES),Potency
1,CC(C)(C)C(=O)NC(Sc1ccccc1)C(Cl)(Cl)Cl (stereo not given),inactive
2,O=P1(Nc2nc3ccc(Cl)cc3s2)COc2ccccc2O1 (stereo not given),inactive
3,CCOc1ccc(C2=NCC(CBr)S2)cc1 (stereo not given),inactive
4,CC(=O)Nc1ccc([As](=O)(O)O)c(O)c1,inactive
5,CC(=O)Nc1ccc(Oc2c([N+](=O)[O-])cc([N+](=O)[O-])cc2[N+](=O)[O-])cc1,inactive
6,COC(=O)C1(C)COP(=O)(NCc2ccccc2)OC1 (stereo not given),inactive
7,Cc1ccccc1CN(C)C(=O)COC(=O)C(O)(c1ccccc1)c1ccccc1,inactive
8,C[C@H]1OP(=O)(Oc2ccccc2)C[C@@H]2O[C@@H]21 (stereo not given in full),inactive
9,C[C@@H]1C=CCP(=O)(Oc2ccccc2)O1 (stereo not given in full),inactive
10,O=P1(N(CCCl)CCCl)OCCC2CCCCN21 (stereo not given),inactive
11,O=C(NC1CCS(=O)(=O)C1)NP(=S)(Oc1ccccc1)Oc1ccccc1 (stereo not given),inactive
12,CCNC(=S)/N=C(\N)N[N+](=O)[O-],inactive
13,c1ccc(-c2nn[nH]n2)c(-c2nn[nH]n2)c1,inactive
14,Cc1ccc(NP(=O)(Oc2cccc(C)c2)Oc2cccc(C)c2)nc1,inactive
15,CC(NC(=O)COC(=O)C(O)(c1ccccc1)c1ccccc1)c1ccccc1 (stereo not given),inactive
16,COC(=O)c1cc2c(s1)N=C(c1ccccc1)N(C)P2(=O)N1CCOCC1 (stereo not given),inactive
17,CC(=O)NC(SC(=S)N(CC(C)C)CC(C)C)C(Cl)(Cl)Cl (stereo not given),inactive
18,Cc1ccc(OP(=O)(Nc2ccccn2)Oc2ccc(C)cc2)cc1,inactive
19,O=C(OC1CN2CCC1CC2)c1ccccc1 (stereo not given),inactive
20,CCC(=O)N1C2C3N(C(=O)CC)C1C1N(C(=O)CC)C(C(N1C(=O)CC)N3C(=O)CC)N2C(=O)CC,inactive
